Among the data in paper PMC5645467 are percent pulled down (importin α3 pulled down by GST-RCC1 = 100%) values, retold here.

This test addresses GST-RCC1 (full-length human RCC1, wild type) (human) (UniProt P18754). As to the kind of experiment: pull-down; GST-RCC1 constructs (~0.75 µM) pre-incubated with His-tagged ΔIBB-importin α1 or α3 (~1 µM), glutathione beads, eluted with reduced glutathione; SDS-PAGE, quantified, ΔIBB-importin α3 pulled down by GST-RCC1 = 100%.

A value given as a limit tells only on which side of the number the result lay.

Take “His-tagged ΔIBB-importin α1 (from UniProt P52293 70-529) (domain or fragment; other documents disagree on this pair)”: the percent pulled down (importin α3 pulled down by GST-RCC1 = 100%) was < 12%.
